One molecule from patent US20030139442A1, “Vasoactive agents” (priority 2002, published 2003) can be followed below.

By UniProt entry, the sequences of proteins in these tests, tags left out.
UniProt Q9UKP6, whole entry: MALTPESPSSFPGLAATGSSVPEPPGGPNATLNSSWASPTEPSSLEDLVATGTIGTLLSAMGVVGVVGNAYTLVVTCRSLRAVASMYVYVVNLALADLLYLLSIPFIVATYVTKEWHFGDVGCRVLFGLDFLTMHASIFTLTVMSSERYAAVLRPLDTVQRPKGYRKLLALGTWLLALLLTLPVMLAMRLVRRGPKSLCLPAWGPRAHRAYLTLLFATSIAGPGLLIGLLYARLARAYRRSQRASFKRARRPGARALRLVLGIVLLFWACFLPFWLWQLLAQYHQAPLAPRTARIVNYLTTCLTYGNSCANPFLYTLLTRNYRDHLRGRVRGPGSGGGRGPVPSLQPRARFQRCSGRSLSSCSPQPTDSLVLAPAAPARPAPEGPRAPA

For the experiment, the target named is human GPR14-expressing CHO cells (Homo sapiens, UniProt Q9UKP6). As to the kind of experiment: Change in intracellular calcium concentration in human GPR14-expressing CHO cells (FLIPR), antagonist activity assay. The experiment is classed as cell-based. The conditions noted are these: Fluo3, 10 μl of 10 nM urotensin II added. As for the experimental part:
Change in Calcium Concentration in Human GPR14-Expressing CHO Cell Caused by Test Compound
GPR14-expressing CHO cells were inoculated on a 96-well plate at 1×10^4 cell/well, cultured for 48 hours, and then washed with 0.1 ml of HBSS containing 20 mM HEPES(pH7.4), 1% FCS and 1% penicillin-streptomycin (hereinafter referred to as “wash buffer”). Next, 100 μl of another wash buffer containing 4 μM Fluo3, 0.04% pluronic acid and 2.5 mM probenicid (hereinafter referred to as “reaction buffer”) was added thereto for reaction at 37° C. for 1 hour. The reaction buffer was then removed and the plate was washed three times with 0.2ml of wash buffer. Then, 90 μl of wash buffer and 10 μl of a solution of test compound in dimethylsulfoxide diluted 10 times (by volume) in membrane diluting buffer were added for agonist activity assay, while, for antagonist activity assay, furthermore 10 μl of 10 nM urotensin II was additionally added to determine change in intracellular calcium concentration in FLIPR (Japan Molecular Device). Both of test compounds 1 and 2 inhibited urotensin II-induced increase in intracellular calcium concentration.

On to `Nc1c2c(nc3ccc(Br)cc13)N(Cc1ccccc1)CC2`, for which the “Effect on urotensin II-induced increase in intracellular calcium concentration” value is reported as “inhibited”.
